Measured values as given in article PMC3811480, “The R Enantiomer of the Antitubercular Drug PA-824 as a Potential Oral Treatment for Visceral Leishmaniasis” (Antimicrobial Agents and Chemotherapy, 2013).

What was measured:
[1] = test system: L. donovani intracellular amastigotes in mouse peritoneal macrophages; experiment: In-macrophage drug sensitivity assay; type: cell-based, Leishmania donovani; details: leishmania-infected macrophages
[2] = test system: Leishmania donovani LdBOB promastigotes; experiment: In vitro drug sensitivity assay, L. donovani promastigotes (72 h, resazurin); type: cell-based; details: promastigotes and intracellular amastigotes
[3] = test system: Mycobacterium tuberculosis; design: method as in PMID 22023140; details: M. tuberculosis, S versus R enantiomer; cited from earlier work

O=[N+]([O-])c1cn2c(n1)OC[C@H](OCc1ccc(OC(F)(F)F)cc1)C2 [(R)-PA-824]
fold more active/potent than (S)-PA-824 in the intramacrophage assay [1]: 6 fold and 5 fold | fold more potent inhibitor of L. donovani growth in vitro than the S enantiomer [2]: ~5 fold

O=[N+]([O-])c1cn2c(n1)OC[C@@H](OCc1ccc(OC(F)(F)F)cc1)C2 [(S)-PA-824, reference compound]
fold more active than the R enantiomer [3]: > 100 fold

Values joined by “and” are separate entries in the source; they are usually repeats but may differ in a detail not shown here. Equal entries are not always repeated.
